# Source: PubChem BioAssay (NCI)
#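 Protocol summary: plate cells (96-well), add compound at 5 concentrations, incubate 48 h, interpolate endpoints linearly. GI50 is the concentration that inhibits growth by half. TGI marks complete inhibition of growth.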
# How the values were obtained:
# Assay in all cases: NCI-60 cell line screen, 48 h
# 786-0 renal = tested on: 786-0 renal
# A498 renal = tested on: A498 renal
# A549 NSCLC = tested on: A549 NSCLC
# ACHN renal = tested on: ACHN renal
# BT-549 breast = tested on: BT-549 breast
# CAKI-1 renal = tested on: CAKI-1 renal
# CCRF-CEM leukemia = tested on: CCRF-CEM leukemia
# COLO 205 colon = tested on: COLO 205 colon
# DU-145 prostate = tested on: DU-145 prostate
# EKVX NSCLC = tested on: EKVX NSCLC
# HCC-2998 colon = tested on: HCC-2998 colon
# HCT-116 colon = tested on: HCT-116 colon
# HCT-15 colon = tested on: HCT-15 colon
# HL-60(TB) leukemia = tested on: HL-60(TB) leukemia
# HOP-62 NSCLC = tested on: HOP-62 NSCLC
# HOP-92 NSCLC = tested on: HOP-92 NSCLC
# HS 578T breast = tested on: HS 578T breast
# HT29 colon = tested on: HT29 colon
# IGROV1 ovarian = tested on: IGROV1 ovarian
# K-562 leukemia = tested on: K-562 leukemia
# KM12 colon = tested on: KM12 colon
# LOX IMVI melanoma = tested on: LOX IMVI melanoma
# M14 melanoma = tested on: M14 melanoma
# MALME-3M melanoma = tested on: MALME-3M melanoma
# MCF7 breast = tested on: MCF7 breast
# MDA-MB-231 breast = tested on: MDA-MB-231 breast
# MDA-MB-435 = tested on: MDA-MB-435
# MDA-N = tested on: MDA-N
# MOLT-4 leukemia = tested on: MOLT-4 leukemia
# NCI-H226 lung = tested on: NCI-H226 lung
# NCI-H23 lung = tested on: NCI-H23 lung
# NCI-H322M lung = tested on: NCI-H322M lung
# NCI-H460 lung = tested on: NCI-H460 lung
# NCI-H522 lung = tested on: NCI-H522 lung
# NCI/ADR-RES ovarian = tested on: NCI/ADR-RES ovarian
# OVCAR-3 ovarian = tested on: OVCAR-3 ovarian
# OVCAR-4 ovarian = tested on: OVCAR-4 ovarian
# OVCAR-5 ovarian = tested on: OVCAR-5 ovarian
# OVCAR-8 ovarian = tested on: OVCAR-8 ovarian
# PC-3 prostate = tested on: PC-3 prostate
# RPMI-8226 leukemia = tested on: RPMI-8226 leukemia
# RXF 393 renal = tested on: RXF 393 renal
# SF-268 CNS = tested on: SF-268 CNS
# SF-295 CNS = tested on: SF-295 CNS
# SF-539 CNS = tested on: SF-539 CNS
# SK-MEL-2 melanoma = tested on: SK-MEL-2 melanoma
# SK-MEL-28 melanoma = tested on: SK-MEL-28 melanoma
# SK-MEL-5 melanoma = tested on: SK-MEL-5 melanoma
# SK-OV-3 ovarian = tested on: SK-OV-3 ovarian
# SN12C renal = tested on: SN12C renal
# SNB-19 CNS = tested on: SNB-19 CNS
# SNB-75 CNS = tested on: SNB-75 CNS
# SR leukemia = tested on: SR leukemia
# SW-620 colon = tested on: SW-620 colon
# T-47D breast = tested on: T-47D breast
# TK-10 renal = tested on: TK-10 renal
# U251 CNS = tested on: U251 CNS
# UACC-257 melanoma = tested on: UACC-257 melanoma
# UACC-62 melanoma = tested on: UACC-62 melanoma
# UO-31 renal = tested on: UO-31 renal
smiles,measurement,setting,value
O=[N+]([O-])c1cn(F)c([N+](=O)[O-])n1,GI50,786-0 renal,18.6 µM
same,TGI,786-0 renal,35.9 µM
same,GI50,A498 renal,17.3 µM
same,TGI,A498 renal,24.2 µM
same,GI50,A549 NSCLC,49.3 µM
same,TGI,A549 NSCLC,74.5 µM
same,GI50,ACHN renal,11.6 µM
same,TGI,ACHN renal,23.8 µM
same,GI50,BT-549 breast,17.8 µM
same,TGI,BT-549 breast,31.9 µM
same,GI50,CAKI-1 renal,6.51 µM
same,TGI,CAKI-1 renal,12.2 µM
same,GI50,CCRF-CEM leukemia,4.24 µM
same,TGI,CCRF-CEM leukemia,> 100 µM
same,GI50,COLO 205 colon,8.41 µM
same,TGI,COLO 205 colon,55.6 µM
same,GI50,DU-145 prostate,25.8 µM
same,TGI,DU-145 prostate,67 µM
same,GI50,EKVX NSCLC,19.3 µM
same,TGI,EKVX NSCLC,34.3 µM
same,GI50,HCC-2998 colon,12.8 µM
same,TGI,HCC-2998 colon,17.7 µM
same,GI50,HCT-116 colon,18.8 µM
same,TGI,HCT-116 colon,39.1 µM
same,GI50,HCT-15 colon,10.6 µM
same,TGI,HCT-15 colon,25.4 µM
same,GI50,HL-60(TB) leukemia,3.81 µM
same,TGI,HL-60(TB) leukemia,56.2 µM
same,GI50,HOP-62 NSCLC,> 100 µM
same,TGI,HOP-62 NSCLC,> 100 µM
same,GI50,HOP-92 NSCLC,21.2 µM
same,TGI,HOP-92 NSCLC,42 µM
same,GI50,HS 578T breast,> 100 µM
same,TGI,HS 578T breast,> 100 µM
same,GI50,HT29 colon,20.6 µM
same,TGI,HT29 colon,47.8 µM
same,GI50,IGROV1 ovarian,19.3 µM
same,TGI,IGROV1 ovarian,35.7 µM
same,GI50,K-562 leukemia,8.91 µM
same,TGI,K-562 leukemia,> 100 µM
same,GI50,KM12 colon,41.5 µM
same,TGI,KM12 colon,57.4 µM
same,GI50,LOX IMVI melanoma,23.5 µM
same,TGI,LOX IMVI melanoma,59.4 µM
same,GI50,M14 melanoma,15.9 µM
same,TGI,M14 melanoma,32.2 µM
same,GI50,MALME-3M melanoma,14.9 µM
same,TGI,MALME-3M melanoma,28.3 µM
same,GI50,MCF7 breast,22.3 µM
same,TGI,MCF7 breast,59.8 µM
same,GI50,MDA-MB-231 breast,15.2 µM
same,TGI,MDA-MB-231 breast,19.6 µM
same,GI50,MDA-MB-435,22.4 µM
same,TGI,MDA-MB-435,47.9 µM
same,GI50,MDA-N,13.6 µM
same,TGI,MDA-N,18.4 µM
same,GI50,MOLT-4 leukemia,3.4 µM
same,TGI,MOLT-4 leukemia,44.1 µM
same,GI50,NCI-H226 lung,51 µM
same,TGI,NCI-H226 lung,77.2 µM
same,GI50,NCI-H23 lung,18.6 µM
same,TGI,NCI-H23 lung,36.4 µM
same,GI50,NCI-H322M lung,> 100 µM
same,TGI,NCI-H322M lung,> 100 µM
same,GI50,NCI-H460 lung,46.6 µM
same,TGI,NCI-H460 lung,69.6 µM
same,GI50,NCI-H522 lung,4.64 µM
same,TGI,NCI-H522 lung,18.1 µM
same,GI50,NCI/ADR-RES ovarian,20.9 µM
same,TGI,NCI/ADR-RES ovarian,62.5 µM
same,GI50,OVCAR-3 ovarian,17.2 µM
same,TGI,OVCAR-3 ovarian,31 µM
same,GI50,OVCAR-4 ovarian,18.7 µM
same,TGI,OVCAR-4 ovarian,33.6 µM
same,GI50,OVCAR-5 ovarian,19 µM
same,TGI,OVCAR-5 ovarian,38.1 µM
same,GI50,OVCAR-8 ovarian,23.8 µM
same,TGI,OVCAR-8 ovarian,62.2 µM
same,GI50,PC-3 prostate,34.8 µM
same,TGI,PC-3 prostate,81.1 µM
same,GI50,RPMI-8226 leukemia,23.7 µM
same,TGI,RPMI-8226 leukemia,82.9 µM
same,GI50,RXF 393 renal,16.6 µM
same,TGI,RXF 393 renal,33.7 µM
same,GI50,SF-268 CNS,20.3 µM
same,TGI,SF-268 CNS,41.7 µM
same,GI50,SF-295 CNS,86.4 µM
same,TGI,SF-295 CNS,> 100 µM
same,GI50,SF-539 CNS,18.5 µM
same,TGI,SF-539 CNS,37.6 µM
same,GI50,SK-MEL-2 melanoma,31.8 µM
same,TGI,SK-MEL-2 melanoma,86.4 µM
same,GI50,SK-MEL-28 melanoma,26.6 µM
same,TGI,SK-MEL-28 melanoma,63.8 µM
same,GI50,SK-MEL-5 melanoma,17.6 µM
same,TGI,SK-MEL-5 melanoma,34.6 µM
same,GI50,SK-OV-3 ovarian,53.4 µM
same,TGI,SK-OV-3 ovarian,76.1 µM
same,GI50,SN12C renal,13.3 µM
same,TGI,SN12C renal,17.8 µM
same,GI50,SNB-19 CNS,> 100 µM
same,TGI,SNB-19 CNS,> 100 µM
same,GI50,SNB-75 CNS,40.5 µM
same,TGI,SNB-75 CNS,58.3 µM
same,GI50,SR leukemia,10.3 µM
same,TGI,SR leukemia,73.9 µM
same,GI50,SW-620 colon,20.5 µM
same,TGI,SW-620 colon,59.8 µM
same,GI50,T-47D breast,22.3 µM
same,TGI,T-47D breast,46.8 µM
same,GI50,TK-10 renal,16.8 µM
same,TGI,TK-10 renal,31.2 µM
same,GI50,U251 CNS,27.1 µM
same,TGI,U251 CNS,77.2 µM
same,GI50,UACC-257 melanoma,18.8 µM
same,TGI,UACC-257 melanoma,38.7 µM
same,GI50,UACC-62 melanoma,18 µM
same,TGI,UACC-62 melanoma,34 µM
same,GI50,UO-31 renal,19.1 µM
same,TGI,UO-31 renal,33.3 µM
